miR-21 reporter: miR-21 reporter, rising signal. 340,000 tested, under 10 active. Potency, µM (highest dose often 38.3 µM), for the others: at the highest dose reporter change, positive = more light. HeLa miR-21 FLuc reporter, luciferase, 48 h. AID 2288; active = well fitted rising curve with a large enough effect; inconclusive = small, poorly fitted or top-dose-only effect; inactive = no such curve, though single readings can be large or run the other way;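 further: % of control where 0% means no effect; miR-21 action dims this reporter so a rising signal means less miR-21 action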
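HeLa cells stably expressing CMV-driven firefly luciferase with a downstream miR-21 binding sequence, endogenously expressing miR-21, were treated with titrations (up to about 40uM final) for 48 hours at 37 degree Celsius. Luciferase luminescence was read after lysis.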
Sfp PPTase inh: qHTS Assay for Inhibitors of Bacillus subtilis Sfp phosphopantetheinyl transferase (PPTase) | 4'-phosphopantetheinyl transferase ffp (Bacillus subtilis), Q9F4F7 | AID 1490, 2009 | actives 3.5% (n = 310,000) | Biochemical Sfp PPTase activity, qHTS | Potency, µM, for inactives: max response, negative = inhibition, most hits filed as inhibitors; active = well fitted inhibition curve with a large enough effect; inconclusive = small, poorly fitted or top-dose-only effect, or another doubt; inactive = no such curve, though single readings can be large or run the other way;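 also: the enzyme is Sfp with the accession as filed and its product quenches rhodamine fluorescence; potency is read from the fitted curve at half-maximal effect; 0% = enzyme reaction without inhibitor and -100% = no enzyme wells; top concentration of the series not given in the record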
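Fluorescence-quenching assay with 15 nM Sfp, 5 uM rhodamine-CoA and 12.5 uM BHQ-2-labelled ybbR peptide in pH 7.6 Hepes/MgCl2 buffer. Enzyme was pre-incubated with compound for 15 min at room temperature. Rate was taken from the 30-min fluorescence change (525/598 nm).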
KDM4E inh: inhibitors of human JMJD2E histone demethylase; actives 1.6% (n = 230,000); B2RXH2; Potency, µM (series often up to 57.1 µM), for the others: at the highest dose activity change, negative = inhibition, actives largely listed as inhibitors; JMJD2E catalytic domain, FDH-coupled NADH fluorescence (FDH is formaldehyde dehydrogenase);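 note: potency is the fitted concentration of half-maximal effect; 0% = wells with enzyme and -100% = buffer wells without enzyme; nearly all actives have a fitted effect of over 50% in size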
LMNA splice mod: changes lamin A minigene splicing in HeLa cells; HeLa LMNA splicing GFP/RFP minigene ratio, 48 h; Potency, µM (titrated, usually from 46.1 µM), for the others: at the highest dose ratio change, negative = inhibition, actives largely listed as inhibitors; actives 0.01% (n = 200,000); AID 1487; active = well fitted inhibition curve with a large enough effect in the signal ratio, with a control signal flat, not every such curve was filed as active; inconclusive = small, poorly fitted or top-dose-only effect, or effect the other way, or a change in a side signal; the % refers to the signal ratio; note: potency is the fitted concentration of half-maximal effect; % is set by controls: 0 for no effect and ±100 for the full control effect
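Read-out is the ratio of GFP to DsRed2 object intensity, acquired by 488 nm laser-scanning cytometry on HeLa lamin A-EGFP minigene reporter cells. Compound incubation 48 hrs at 37 °C in Opti-MEM with 2% FBS; DMSO 0.5% final.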
ALDH1A1 inh: inhibitors of human aldehyde dehydrogenase 1A1 | P00352 | Purified ALDH1A1, NADH fluorescence, propionaldehyde substrate | Potency, µM (titrated, usually from 75.3 µM), for the others: top-dose activity, negative = inhibition, hits mostly inhibitors | actives 7.3% (n = 220,000) | AID 1030; active = well fitted inhibition curve with a large enough effect, not every such curve was filed as active; inconclusive = small, poorly fitted or top-dose-only effect, or another doubt; inactive = no such curve, though single readings can be large or run the other way;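 note: potency is the fitted concentration of half-maximal effect; plate controls were no enzyme wells and a reference inhibitor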
G9a block: blocks human histone lysine methyltransferase G9a | Q96KQ7 | G9a H3K9 monomethylation, AlphaScreen, 2 h | Potency, µM (titrated, usually from 102 µM), for the others: at the top dose activity, negative = inhibition, hits mostly inhibitors | actives 8.8% (n = 350,000); note: potency is the fitted concentration of half-maximal effect; % is set by controls: 0 for no effect and ±100 for the full control effect; nearly all actives have a fitted effect of over 75% in size
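Readings reflect AlphaScreen signal from monomethyl-H3K9 antibody detection. HMT at 20 nM; substrate b-H3K9 500 nM; cofactor SAM 20 uM; 2 h RT reaction; compounds tested as titrations in qHTS with 15 min preincubation.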
* hit, by the source's call; ? = inconclusive; . = not tested or not shown; [ ] = another dose, or the depositor's remark. A selection: hits, their analogues and other compounds. The true share with any hit is near 13%. Unless noted, calls come from the whole dose curve; as a rule, active = well fitted curve in the direction sought with a large enough effect; inconclusive = small, poorly fitted or top-dose-only effect, or another doubt; inactive = no such curve, though single readings can be large; an effect the other way counts as inactive or inconclusive.

Codes: A = miR-21 reporter; B = Sfp PPTase inh; C = KDM4E inh; D = LMNA splice mod; E = ALDH1A1 inh; F = G9a block
COc1cc(C2C(C(=O)c3ccc(C)o3)=C(O)C(=O)N2c2cc(C)on2)cc(OC)c1OC (stereo not drawn)
  A: 5%; B: -19%; C: 7%; D: 0%; E: ?; F: 0%[59 µM]

CCCCOc1ccc(C2C(C(=O)c3ccc(C)o3)=C(O)C(=O)N2Cc2ccco2)cc1 (stereo not drawn)
  A: -2%; B: -20%; C: .; D: .; E: .; F: ?

CCOc1ccc(/C(O)=C2\C(=O)C(=O)N(c3cc(C)on3)C2c2ccccc2OC)cc1 (stereo not drawn)
  A: 0%; B: -8%; C: -4%; D: -10%; E: 22µM*; F: ?

CCOc1ccc(C2C(C(=O)c3ccc(C)o3)=C(O)C(=O)N2c2cc(C)on2)cc1OC (stereo not drawn)
  A: -1%; B: -24%; C: .; D: .; E: .; F: 50µM*

COc1ccc(OC)c(NC(=O)c2ccc3c(c2)C(=O)N(CC2CCCO2)C3=O)c1 (stereo not drawn)
  A: 0%; B: 14%; C: .; D: .; E: .; F: 14%

CN1CCN(CCCNC(=O)c2cnn(-c3ccccc3)c2-n2cccc2)CC1
  A: -6%; B: .; C: .; D: .; E: .; F: 2%[59 µM]

N[C@@H](CCCC(=O)O)C(=O)O
  A: .; B: .; C: 3%; D: ?; E: -5%; F: ?

COc1cc(C2C(C(=O)c3cccs3)=C(O)C(=O)N2c2cc(C)on2)ccc1O (stereo not drawn)
  A: -3%; B: -11%; C: -11%; D: 4%; E: 2%; F: 50µM*

COc1cc(C2C(C(=O)c3ccc(C)o3)=C(O)C(=O)N2c2cc(C)on2)ccc1O (stereo not drawn)
  A: -17%; B: 8%; C: -8%; D: ?; E: 10%; F: 45µM*

Cc1cccc(N2C(=O)C(O)=C(C(=O)c3cccs3)C2c2cccc(Oc3ccccc3)c2)n1 (stereo not drawn)
  A: -2%; B: -3%; C: ?; D: .; E: .; F: 50µM*

Other entries.
Codes: A = miR-21 reporter; B = Sfp PPTase inh; C = KDM4E inh; D = LMNA splice mod; E = ALDH1A1 inh; F = G9a block
COc1ccccc1C1C(C(=O)c2ccc(C)o2)=C(O)C(=O)N1c1cc(C)on1 (stereo not drawn)
  A: 3%; B: -18%; C: .; D: .; E: .; F: 89µM*

Cc1cccc(N2C(=O)C(O)=C(C(=O)c3cccs3)C2c2ccccc2)n1 (stereo not drawn)
  A: 2%; B: 24%; C: 2%; D: .; E: .; F: -49%

COc1ccccc1C1C(C(=O)c2ccco2)=C(O)C(=O)N1c1cc(C)on1 (stereo not drawn)
  A: 3%; B: 4%; C: .; D: .; E: .; F: ?

COc1cccc(C(=O)N(Cc2cccnc2)c2nc3c(OC)ccc(C)c3s2)c1OC
  A: 22%; B: .; C: .; D: ?; E: .; F: ?

C/C=C/OC(=O)NC(c1ccccc1)[C@@]1(C(=O)OCC)CCCC1=O (stereo partly drawn)
  A: .; B: -7%; C: .; D: .; E: ?; F: .

COc1cccc(C2C(C(=O)c3ccc(C)o3)=C(O)C(=O)N2c2cc(C)on2)c1 (stereo not drawn)
  A: -2%; B: -1%; C: .; D: .; E: .; F: 45µM*

Cn1c(=O)c2c(nc(NCc3ccc4c(c3)OCO4)n2Cc2ccccc2)n(C)c1=O
  A: 20%; B: 18%; C: 2%; D: ?; E: ?; F: 13%[12.7 µM]

COCCn1c(CN2CCN(C(=O)c3ccco3)CC2)nc2c1c(=O)n(C)c(=O)n2C
  A: 0%; B: 13%; C: .; D: .; E: .; F: .

Cn1c(=O)c2c(nc(NCc3ccc4c(c3)OCO4)n2Cc2ccccc2F)n(C)c1=O
  A: -12%; B: -3%; C: 2%; D: 8%; E: 13µM*; F: -40%[59 µM]

Cc1ccccc1Cn1c(CN2CCN(C(=O)c3ccco3)CC2)nc2c1c(=O)n(C)c(=O)n2C
  A: -7%; B: 16%; C: 0%; D: -9%; E: ?; F: ?

The final three compounds of the part before lead into the next:
Codes: A = miR-21 reporter; B = Sfp PPTase inh; C = KDM4E inh; D = LMNA splice mod; E = ALDH1A1 inh; F = G9a block
COCCn1c(CN2CCN(C(=O)c3ccco3)CC2)nc2c1c(=O)n(C)c(=O)n2C
  A: 0%; B: 13%; C: .; D: .; E: .; F: .

Cn1c(=O)c2c(nc(NCc3ccc4c(c3)OCO4)n2Cc2ccccc2F)n(C)c1=O
  A: -12%; B: -3%; C: 2%; D: 8%; E: 13µM*; F: -40%[59 µM]

Cc1ccccc1Cn1c(CN2CCN(C(=O)c3ccco3)CC2)nc2c1c(=O)n(C)c(=O)n2C
  A: -7%; B: 16%; C: 0%; D: -9%; E: ?; F: ?

Cn1c(=O)c2c(nc(CN3CCN(C(=O)c4ccco4)CC3)n2Cc2ccc(F)cc2)n(C)c1=O
  A: -12%; B: -20%; C: -6%; D: 2%; E: 20µM*; F: ?

Cn1c(=O)c2c(nc(CN3CCN(C(=O)c4ccco4)CC3)n2Cc2ccccc2F)n(C)c1=O
  A: -6%; B: 15%; C: -6%; D: -11%; E: 13µM*; F: ?

O=C(c1ccc(S(=O)(=O)N2CCc3ccccc3C2)cc1)N1CCCCC1
  A: 3%; B: 9%; C: -5%; D: -22%[46 µM]; E: 8%; F: -19%

O=[N+]([O-])c1cccc(/C=N/NC2=NCCCCC2)c1
  A: -45%; B: 5%; C: -5%; D: 3%; E: 0%; F: 1%[59 µM]

COc1ccc(/C=N/NC2=NCCCCC2)cc1
  A: -10%; B: -3%; C: -1%; D: 4%; E: ?; F: 28µM*

Oc1ccccc1/C=N/NC1=NCCCCC1
  A: -38%; B: -5%; C: ?; D: 1%; E: -6%; F: .

COc1ccc(/C=N/NC(C)(C)C)c(OC)c1
  A: 2%; B: -13%; C: ?; D: ?; E: 20µM*; F: 13µM*

COc1cc(/C=C\c2ccc(OC)cc2OC)cc(OC)c1
  A: .; B: 50µM*; C: ?; D: .; E: ?; F: .

COc1ccc(C=O)c(OC)c1
  A: 1%; B: 9%; C: -13%; D: ?; E: ?; F: 3%[59 µM]

COc1ccc(/C=N/NC2=NCCCCC2)c(OC)c1
  A: -10%; B: 7%; C: ?; D: .; E: ?; F: 11µM*

Next structures
Codes: A = miR-21 reporter; B = Sfp PPTase inh; C = KDM4E inh; D = LMNA splice mod; E = ALDH1A1 inh; F = G9a block
COc1ccc(CNS(=O)(=O)c2cc3c4c(c2)C(C)C(=O)N4CCC3)cc1 (stereo not drawn)
  A: 5%; B: 4%; C: .; D: .; E: .; F: -24%

CN(C)c1cc(N/N=C\c2ccccc2)nc(N(C)C)n1
  A: 2%; B: -1%; C: 9%; D: -27%[46 µM]; E: 1%; F: -18%

COc1ccc(/C=N/Nc2cc(N(C)C)nc(N(C)C)n2)cc1
  A: -14%; B: -16%; C: -19%; D: ?; E: 7%; F: 4.5µM*

COc1ccc2c(c1)C(NC(C)=O)C(=O)N2CCc1ccccc1 (stereo not drawn)
  A: -1%; B: 1%; C: -29%; D: 17%[46 µM]; E: ?; F: -22%

CCCN1C(=O)C(NC(C)=O)c2ccccc21 (stereo not drawn)
  A: -2%; B: 2%; C: -2%; D: 3%; E: 0.13µM*; F: 40µM*

CCc1ccc2c(c1)C(NC(C)=O)C(=O)N2CCN1CCOCC1 (stereo not drawn)
  A: -1%; B: ?; C: .; D: .; E: .; F: 28µM*

Cc1c(NC(=O)C(F)(F)F)ccc2nc3c(=O)n(C)c(=O)n(C)c3nc12
  A: -31%; B: .; C: .; D: .; E: .; F: -36%[59 µM]

CC(C)Oc1ccc(C(=O)N/N=C/c2ccc(-c3ccc(S(=O)(=O)Nc4ncccn4)cc3)o2)cc1
  A: -15%; B: 79µM*; C: ?; D: -5%; E: ?; F: 50µM*

NC(=O)N/N=C/c1ccc(-c2ccc(S(=O)(=O)Nc3ncccn3)cc2)o1
  A: .; B: .; C: .; D: .; E: .; F: 11µM*

NC(=O)N/N=C/c1ccc(-c2cccc(C(F)(F)F)c2)o1
  A: -6%; B: 9%; C: ?; D: ?; E: ?; F: -31%

Cc1ccc(C(=O)N/N=C\c2ccc(-c3ccc(Cl)cc3)o2)cn1
  A: 21%; B: 8%; C: ?; D: .; E: -4%; F: 1%

COCCN1C=C2C(=O)C(C)(OC(=O)CCC(=O)OC)C(=O)C(Br)=C2C=C1c1ccc(OC)cc1 (stereo not drawn)
  A: .; B: -13%; C: ?; D: ?; E: -12%[13.5 µM]; F: .

C=CCN1C=C2C(=O)C(C)(OC(=O)CCC(=O)OC)C(=O)C(Br)=C2C=C1c1ccc(OC)cc1 (stereo not drawn)
  A: -10%; B: 13%; C: 7.9µM*; D: -12%[9.22 µM]; E: ?; F: 23%[12.7 µM]
